Literature values, collected in US20170000761A1, “PROTECTING TISSUE AND MITIGATING INJURY FROM CHEMICAL EXPOSURE” (published 2017).

## O=c1c(-c2ccc(O)cc2)coc2cc(O)cc(O)c12
  Solubility in several pharmaceutically acceptable solvents: low to virtually no solubility
